# Values of other authors, collected in patent US20090226898A1, “Mitochondrial markers of ischemia” (Inverness Medical Switzerland GMBH, priority 2005, published 2009).
# Protein sequences, listed by entry. Tags and fused reporters are not part of them. Lines headed by an entry give the natural chain unless they say otherwise; changes in a name come on top.
# UniProt P25090: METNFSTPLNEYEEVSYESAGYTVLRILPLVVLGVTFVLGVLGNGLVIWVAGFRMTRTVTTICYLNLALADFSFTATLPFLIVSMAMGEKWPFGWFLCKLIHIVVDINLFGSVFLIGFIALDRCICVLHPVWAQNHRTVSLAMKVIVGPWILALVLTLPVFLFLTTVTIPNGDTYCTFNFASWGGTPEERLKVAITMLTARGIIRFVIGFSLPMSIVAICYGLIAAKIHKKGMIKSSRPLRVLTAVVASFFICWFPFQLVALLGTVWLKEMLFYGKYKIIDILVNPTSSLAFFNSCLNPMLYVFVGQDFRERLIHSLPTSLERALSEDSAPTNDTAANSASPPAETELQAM
# Biological target: FPR-like 1 (FPRL1) (Homo sapiens, UniProt P25090)
substance,measurement,value
formyl-Met-Leu-Phe [fMLP],receptor activation,only activated by high (micromolar) concentrations
